Target: Muscarinic acetylcholine receptor M1 (Homo sapiens, UniProt P11229)
Assay: Efficacy expressed as PI (percentage of carbachol) against human M1 receptor expressed in CHO cells
Type: functional, cell-based

Protein sequences, listed by entry. Tags and fused reporters are not part of them. Lines headed by an entry give the natural chain unless they say otherwise; changes in a name come on top.
UniProt P11229: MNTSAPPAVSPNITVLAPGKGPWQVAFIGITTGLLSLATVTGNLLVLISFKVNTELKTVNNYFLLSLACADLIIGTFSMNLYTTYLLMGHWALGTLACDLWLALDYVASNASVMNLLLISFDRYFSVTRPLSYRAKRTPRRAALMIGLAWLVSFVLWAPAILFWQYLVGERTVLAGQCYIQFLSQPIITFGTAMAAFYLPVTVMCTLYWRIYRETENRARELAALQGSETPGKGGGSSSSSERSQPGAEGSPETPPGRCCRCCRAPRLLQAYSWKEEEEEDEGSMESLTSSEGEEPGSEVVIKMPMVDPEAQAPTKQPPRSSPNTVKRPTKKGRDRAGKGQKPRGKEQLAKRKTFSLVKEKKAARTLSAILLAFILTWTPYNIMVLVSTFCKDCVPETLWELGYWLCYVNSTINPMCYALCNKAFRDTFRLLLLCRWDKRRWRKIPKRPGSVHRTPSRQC

SMILES: CCCCCCOc1nccnc1O[C@@H]1CN2CCC1C2 (stereo in doubt; 6)
- PI: 75%

Reference: ChEMBL document CHEMBL1131780 (Bioorg Med Chem Lett, 1999)
